Source: PMC3745399, “An NO Donor Approach to Neuroprotective and Procognitive Estrogen Therapy Overcomes Loss of NO Synthase Function and Potentially Thrombotic Risk” (PLoS ONE, 2013)

The chains behind the UniProt entries cited, without tags or fusion partners.
UniProt Q92731, whole entry: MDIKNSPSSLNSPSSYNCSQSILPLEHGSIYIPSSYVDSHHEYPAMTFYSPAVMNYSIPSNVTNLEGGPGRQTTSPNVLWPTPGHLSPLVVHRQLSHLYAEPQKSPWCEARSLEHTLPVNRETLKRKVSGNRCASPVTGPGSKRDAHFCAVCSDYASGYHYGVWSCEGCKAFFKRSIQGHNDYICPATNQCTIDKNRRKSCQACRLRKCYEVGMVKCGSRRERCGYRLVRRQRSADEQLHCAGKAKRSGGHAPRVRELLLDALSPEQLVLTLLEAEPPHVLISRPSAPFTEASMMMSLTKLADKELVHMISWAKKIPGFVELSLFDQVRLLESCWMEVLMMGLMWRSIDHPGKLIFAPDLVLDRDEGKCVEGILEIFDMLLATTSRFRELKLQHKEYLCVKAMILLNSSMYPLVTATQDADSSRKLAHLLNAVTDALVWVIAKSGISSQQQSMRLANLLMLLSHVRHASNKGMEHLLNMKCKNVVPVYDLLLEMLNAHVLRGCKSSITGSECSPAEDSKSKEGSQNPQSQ

Tests used:
[1] = tested on: Ishikawa endometrial cancer cell line; experiment: ER-mediated transcriptional activity (antiestrogen) in Ishikawa cells; type: cell-based; settings: read-out: antiestrogen potency IC50, ER-mediated transcriptional activity
[2] = tested on: C57Bl/6 mice or eNOS(−/−) mice; experiment: Step-through passive avoidance (STPA) memory model; settings: C57Bl/6 male mice; scopolamine 1 mg/kg i.p.; SERM 2 mg/kg; tested 24 h after training
ERβ = ERβ (Homo sapiens, UniProt Q92731); experiment: ER binding affinity by competitive E2 displacement (ERβ); settings: read-out: IC50 for ERβ
[3] = tested on: primary cortical neurons exposed to OGD; experiment: Neuroprotection in oxygen glucose deprivation (OGD), MTT; settings: 100 nM; 2 h OGD; 24 h; no blocker; normalized to E2 10 nM (100%) and vehicle (0%)
isolated rings of aortae = experiment: Aortic ring relaxation

In the case of `Oc1ccc2c(Oc3ccc(OCCN4CCCCC4)cc3)c(-c3ccc(F)cc3)sc2c1`, the IC50 [1] is reported as 1.4 nM, the “reversal of scopolamine-induced memory deficit (STPA latency)” value [2] is reported as “without effect” and the IC50 (ERβ) is reported as 16 nM. The “neuroprotection (cell survival by MTT)” value [3] was “ineffectiveness”, the “maximal relaxation response, comparison” value (isolated rings of aortae; intact aortic rings) was “significantly less than those for DMA and raloxifene” and the EC50 (isolated rings of aortae; read-out: EC50 for relaxation, intact aortic rings contracted with phenylepinephrine, mean, S.D.) was 2400 nM.
